Consider three molecules from US20260137794A1, “LIGAND-DRUG CONJUGATE AND USE THEREOF” (SYSTIMMUNE, INC., priority 2022, published 2026).

Amino acid sequences for entries named in this document (tags omitted). Residues count along the entry.
UniProt P20138, 18-364: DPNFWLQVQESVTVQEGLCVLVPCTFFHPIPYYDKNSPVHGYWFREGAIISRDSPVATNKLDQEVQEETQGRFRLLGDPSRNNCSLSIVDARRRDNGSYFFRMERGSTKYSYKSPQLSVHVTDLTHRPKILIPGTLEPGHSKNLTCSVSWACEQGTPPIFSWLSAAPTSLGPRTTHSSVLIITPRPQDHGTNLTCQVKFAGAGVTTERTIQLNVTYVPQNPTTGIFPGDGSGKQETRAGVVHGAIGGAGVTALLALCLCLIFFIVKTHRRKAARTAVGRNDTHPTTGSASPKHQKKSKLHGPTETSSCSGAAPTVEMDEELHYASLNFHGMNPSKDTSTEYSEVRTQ

The test system of assay [1] is HEL92.1.7. The assay can be described thus: CD33 cell killing experiment by MTS method, HEL92.1.7. Type of assay: cell-based, Human. Conditions: HEL92.1.7, CD33 high expression, 5 days, read-out: Test drug IC50. As to the method:
(§1) Pharmacodynamic test at cellular level: cell plating was performed on a 96-well plate in a certain density. After the cells adhered to the wall (usually taking at least 4 h), a series of drugs in several folds of dilution were added to each well plate to act for a certain period of time, for killing the cells. At the end of action of the drugs, a certain amount of MTS was added to react at 37° C. under 5% CO2 for 1-4 h. After color development using the MTS reagent, the OD 490 nm absorbance value was detected using a microplate reader, and then the IC50 for cell killing was analyzed and calculated.
(§2) Before addition, according to the concentration of each test sample, a drug (5×mother liquor concentration) was prepared using a preheated 1% FBS culture medium according to the initial concentration of 5.0 μM, and then diluted according to 10 folds of gradient concentration, totaling 8 detection points, followed by standing for later use. During the preparation, each concentration was uniformly mixed using an oscillator, specifically, oscillating for 2-3 sec at a time, with an interval of 1 sec, and then oscillating again, repeating 2-3 times.
(§3) The final concentration of the antibody and the antibody conjugated drug was 0 (Vehicle), 0.6 pM, 4.25 pM, 29.75 pM, 0.21 nM, 1.46 nM, 10.20 nM, 71.43 nM, 500 nM.
(§4) • 1) Cell revival: after preheating in a 37° C.′ water bath, 9 mL of the culture medium was taken and put in a centrifuge tube for later use; the cells were taken out from liquid nitrogen, immediately quickly shaked at 37° C.′ to fully thaw, then transferred into the centrifuge tube, and centrifuged at 1000 rpm for 3 min at room temperature: the supernatant was discarded, and the precipitate was re-suspended with 1 mL of complete culture medium, where the process should be gentle, to prevent bubbles from being blown out, thereby reducing damage to the cells; the cells were transferred into a culture flask, and cultivated in a cell incubator at 37° C., 5% CO2 and 95% relative humidity. […]
A general note: Tetrazolium dyes change colour on reduction, which living cells bring about.

For assay [2], the system named is HL-60. Kind of assay: CD33 cell killing experiment by MTS method, HL-60. Type of assay: cell-based, Human. Particulars: HL-60, CD33 moderate expression, 5 days, read-out: Test drug IC50. The method, then:
as §1, §2, §3, §4

For assay [3], the system named is multiple AML cell strains. The assay can be described thus: CD33 cell killing experiment, conclusion over the cell models. Type of assay: cell-based, Human. Particulars: in words; MTS. As to the method: as §1, §4
The subject of assay [4] is A431. Kind of assay: CD33 cell killing experiment by MTS method, A431. Conditions: A431, CD33 negative, 5 days, read-out: Test drug IC50. Type of assay: cell-based, Human. As to the method:
as §1, §2, §3, §4

For assay [5], the system named is U937. Kind of assay: CD33 cell killing experiment by MTS method, U937. The format is cell-based, Human. Particulars: U937, CD33 moderate expression, 5 days, read-out: Test drug IC50. As to the method: as §1, §2, §3, §4
The test system of assay [6] is CMK. Kind of assay: CD33 cell killing experiment by MTS method, CMK. Type of assay: cell-based, Human. Particulars: CD33 moderate expression, 5 days, read-out: Test drug IC50. The method, then:
as §1, §2, §3, §4

Assay [7] addresses recombinant human CD33 protein (Homo sapiens, UniProt P20138). Kind of assay: Binding of anti-CD33 antibody-drug conjugate to recombinant human CD33 protein by ELISA. Conditions: in words, 3-fold gradient from 2 μg/mL. The method, then: The binding ability of antibody to antigen can be preliminarily judged by ELISA. Here, recombinant human CD33 protein was immobilized on an enzyme strip, and tested with the addition of a series of concentration gradients of CD33 antibody. • 1. Coating: coating with CD33 diluted to 0.5 ng/ml, using 1×PBS, at 100 μL per well, at 4° C. overnight. • 2. Plate washing: washing the plate with a plate wash buffer (1×PBS+0.05% Tween 20) 3 times, at 200 μL per well, while standing for 1 min each time. • 3. Sealing: after the 3rd patting-dry of the wash buffer, sealing with a sealing buffer (1/PBS+0.05% Tween20+1% BSA), at 200 μL per well, at 37° C. for 1 h. • 4. Plate washing: washing the plate with the plate wash buffer 3 times, at 200 μL per well, while standing for 1 min each time. • 5. Primary antibody loading: diluting the antibody-drug conjugate (same as Test example 1) at a 3-fold gradient from 2 μg/mL using a sample diluent (1×PBS+0.05% Tween20+1% BSA); washing the plate with the plate wash buffer 3 times, at 200 μL per well, while standing for 1 min each time. • 6. Secondary antibody loading: diluting Solarbio rabbit anti-human antibody at a ratio of 1:10000 with an assay buffer (1<PBS+0.05% Tween20+1% BSA) to 100 μL per well, while standing at 37° C. for 1 h. • 7. Plate washing: washing the plate with the plate wash buffer 3 times, at 200 μL per well, while standing for 1 min each time. • 8. Reading: after 7 min of color development with the addition of a TMB color development liquid (50 μL per well), adding 2M H2SO4 (50 μL per well) to terminate it. Plate reading using a microplate reader at 450 nm.

B1: ANTI-CD33 mAb: Naked anti-CD33 antibody; light chain SEQ ID NO: 1, heavy chain SEQ ID NO: 2 (antibody)
heavy: EVQLVQSGAEVKKPGSSVKVSCKASGYTITDSNIHWVRQAPGQSLEWIGYIYPYNGGTDYNQKFKNRATLTVDNPTNTAYMELSSLRSEDTAFYYCVNGNPWLAYWGQGTLVTVSSASTKGPSVFPLAPSSKSTSGGTAALGCLVKDYFPEPVTVSWNSGALTSGVHTFPAVLQSSGLYSLSSVVTVPSSSLGTQTYICNVNHKPSNTKVDKRV[human IgG1 Fc not spelt out]
light: DIQLTQSPSTLSASVGDRVTITCRASESLDNYGIRFLTWFQQKPGKAPKLLMYAASNQGSGVPSRFSGSGSGTEFTLTISSLQPDDFATYYCQQTKEVPWSFGQGTKVEVKRTVAAPSVFIFPPSDEQLKSGTASVVCLLNNFYPREAKVQWKVDNALQSGNSQESVTEQDSKDSTYSLSSTLTLSKADYEKHKVYACEVTHQGLSSPVCTKSFNRGEC
A word on the IC50: it is the point on the concentration scale where inhibition reaches its midpoint. As for B1, the IC50 in assay [1], in assay [2], in assay [4], in assay [5] and in assay [6] was > 500 nM each time. In assay [3], the “killing activity against the multiple AML cell strains” value is given as “no significant killing activity”.

B2: ANTI-CD33-Ex01 (2)-R01-1 (8) (conjugate)
light: DIQLTQSPSTLSASVGDRVTITCRASESLDNYGIRFLTWFQQKPGKAPKLLMYAASNQGSGVPSRFSGSGSGTEFTLTISSLQPDDFATYYCQQTKEVPWSFGQGTKVEVKRTVAAPSVFIFPPSDEQLKSGTASVVCLLNNFYPREAKVQWKVDNALQSGNSQESVTEQDSKDSTYSLSSTLTLSKADYEKHKVYACEVTHQGLSSPVCTKSFNRGEC
heavy: EVQLVQSGAEVKKPGSSVKVSCKASGYTITDSNIHWVRQAPGQSLEWIGYIYPYNGGTDYNQKFKNRATLTVDNPTNTAYMELSSLRSEDTAFYYCVNGNPWLAYWGQGTLVTVSSASTKGPSVFPLAPSSKSTSGGTAALGCLVKDYFPEPVTVSWNSGALTSGVHTFPAVLQSSGLYSLSSVVTVPSSSLGTQTYICNVNHKPSNTKVDKRV[human IgG1 Fc not spelt out]
With B2, the “binding ability to recombinant human CD33 protein, compared with naked anti-CD33 antibody” value in assay [7] was “basically the same”.

B3: ANTI-CD33-Ex01 (10) (conjugate)
light: DIQLTQSPSTLSASVGDRVTITCRASESLDNYGIRFLTWFQQKPGKAPKLLMYAASNQGSGVPSRFSGSGSGTEFTLTISSLQPDDFATYYCQQTKEVPWSFGQGTKVEVKRTVAAPSVFIFPPSDEQLKSGTASVVCLLNNFYPREAKVQWKVDNALQSGNSQESVTEQDSKDSTYSLSSTLTLSKADYEKHKVYACEVTHQGLSSPVCTKSFNRGEC
heavy: EVQLVQSGAEVKKPGSSVKVSCKASGYTITDSNIHWVRQAPGQSLEWIGYIYPYNGGTDYNQKFKNRATLTVDNPTNTAYMELSSLRSEDTAFYYCVNGNPWLAYWGQGTLVTVSSASTKGPSVFPLAPSSKSTSGGTAALGCLVKDYFPEPVTVSWNSGALTSGVHTFPAVLQSSGLYSLSSVVTVPSSSLGTQTYICNVNHKPSNTKVDKRV[human IgG1 Fc not spelt out]
In the case of B3, the IC50 in assay [1] worked out at 10.1 nM; in assay [2] it was 5.39 nM; in assay [4] it was 87.2 nM; in assay [5] it was 31.6 nM; in assay [6], 11.5 nM. Besides, the “binding ability to recombinant human CD33 protein, compared with naked anti-CD33 antibody” value in assay [7] was “basically the same”.
